Measurements taken from BindingDB's records for doi:10.1016/j.bmcl.2008.09.002 (Ohio State University, 2008).
pKi: −log10 of the molar value.

Molecular target: T1, Androgen receptor (Rattus norvegicus, UniProt P15207)
T1 sequence (P15207 whole entry): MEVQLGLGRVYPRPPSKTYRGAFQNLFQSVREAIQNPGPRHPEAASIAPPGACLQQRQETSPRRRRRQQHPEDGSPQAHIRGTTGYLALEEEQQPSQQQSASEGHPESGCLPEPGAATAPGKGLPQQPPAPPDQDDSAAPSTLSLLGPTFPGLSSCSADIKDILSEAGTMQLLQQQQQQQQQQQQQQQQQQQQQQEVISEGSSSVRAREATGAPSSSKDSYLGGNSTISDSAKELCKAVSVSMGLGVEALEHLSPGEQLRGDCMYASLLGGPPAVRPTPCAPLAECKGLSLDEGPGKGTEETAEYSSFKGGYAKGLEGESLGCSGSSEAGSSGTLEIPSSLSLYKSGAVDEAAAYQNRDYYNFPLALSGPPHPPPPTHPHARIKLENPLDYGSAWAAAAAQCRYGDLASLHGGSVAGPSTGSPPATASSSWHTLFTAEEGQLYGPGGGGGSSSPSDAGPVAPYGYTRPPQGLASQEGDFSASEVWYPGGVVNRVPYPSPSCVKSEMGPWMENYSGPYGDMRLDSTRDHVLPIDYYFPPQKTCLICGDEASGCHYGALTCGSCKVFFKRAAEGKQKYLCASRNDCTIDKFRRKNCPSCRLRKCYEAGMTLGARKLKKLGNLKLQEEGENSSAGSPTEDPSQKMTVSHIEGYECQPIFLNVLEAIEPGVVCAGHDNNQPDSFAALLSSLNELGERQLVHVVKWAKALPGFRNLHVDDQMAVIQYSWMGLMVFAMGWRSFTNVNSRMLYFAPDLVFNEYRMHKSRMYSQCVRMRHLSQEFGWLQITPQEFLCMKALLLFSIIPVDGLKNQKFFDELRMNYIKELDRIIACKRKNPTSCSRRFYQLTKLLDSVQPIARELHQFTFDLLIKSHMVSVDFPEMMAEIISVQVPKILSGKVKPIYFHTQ

C[C@](O)(COc1ccc(Cl)c(F)c1)C(=O)Nc1ccc(C#N)c(C(F)(F)F)c1
pKi: 8.77
